Tested on: coxsackievirus B3 (CVB3-GFP)
Type: cell-based
Conditions: HeLa cells, replicate R1

## BIRC4: human RING type E3 ligase expressed from lentiviral vector
GFP-positive cells within RFP-positive gate
  Percent Infected R1: 96.9%
  Z score R1: 0.106
